The list shows a part of the results, in another mix than the full data. Results filed as inconclusive are left out. The source made the active and inactive calls. Calls follow the shape of the dose curve; as a rule, active = well fitted activation curve with a large enough effect; inconclusive = small, poorly fitted or top-dose-only effect; inactive = no such curve, though single readings can be large or run the other way.
test: qHTS Assay for Agonists of the Thyroid Stimulating Hormone Receptor: Activators of Intracellular cAMP Concentrations in Parental HEK 293; details: parental HEK293 CNG cAMP sensor, membrane potential fluorescence; series mostly up to 57.1 µM; activation: at the top concentration; also: nearly all actives have a fitted effect of over 55% in size; as to activation: % of control where 0% means no effect
From the text: NIH Chemical Genomics Center [NCGC]
NIH Molecular Libraries Screening Centers Network [MLSCN]
PI Name: Dr. Marvin Gershengorn
This cell based assay utilized a cyclic nucleotide gated ion channel (CNG) as a biosensor for cAMP induction. HEK 293 cells stably expressing the modified CNG were purchased from BD biosciences (http://www.atto.com/products/actone/features_benefits.shtml) . Stimulation of cAMP production causes the CNG to open and subsequent membrane depolarization to occur. A fluorescent membrane potential dye (BD biosciences) was utilized to detect cAMP stimulation in cells.
The cells were maintained in DMEM medium (Invitrogen) containing 10 % FBS (Hyclone), 100 units/ml Penicillin, 100 ug/ml Streptomycin (Invitrogen), and 250 ug/ml Geneticin (Invitrogen) and 1 ug/ml Puromycin (Invitrogen) at 37C in 5% CO2. This assay was used as a counterscreen to "qHTS Assay for Agonists of the Thyroid Stimulating Hormone Receptor", to control for compounds signaling through endogenous receptors and other targets of HEK 293 cells.
NCGC Assay Protocol Summary:
High Throughput Screening. Freshly passaged cells were dispensed into 1536-well assay plates at 4 ul/well in DMEM containing phenol red (Invitrogen), 10% FCS (Hyclone), and 100 units/ml Penicillin, 100 ug/ml Streptomycin (Invitrogen) and incubated at 37 C with 5% CO2 for 20 to 36 hrs before the robotic screening. The screen was initiated by addition of 4 ul/well membrane potential dye containing 100 uM RO 20-1724 (Sigma Aldrich), followed by 60 min incubation at room temperature to allow for dye equilibration across the cell membrane. 23 nl/well compound or control was then added to the assay plates, which were incubated for additional 30 min before reading a Envision fluorescence plate reader (Perkin Elmer) in bottom-read mode for fluorescence intensity (emission at 590 nm).
Keywords: cAMP, CNG Ion Channel, quantitative high throughput screening, qHTS, HTS, probe identification, CNG, cAMP, cyclic nucleotide gated ion channel PubChem
Potency is read from the fitted curve at half-maximal effect.

SMILES | activation | Potency
CCn1nc(C(=O)O)c(=O)c2cc3c(cc21)OCO3 | inactive: 13.9% | –
CC(=O)O[C@H]1C[C@@]2(C)[C@H](C[C@@H](O)[C@H]3[C@@]4(C)CC[C@@H](O)[C@@H](C)[C@H]4CC[C@@]32C)C1=C(CCC=C(C)C)C(=O)O | inactive: 3.61% [at 25.6 µM] | –
COCCn1c(SCc2nc3sc(C(=O)OC)c(C)c3c(=O)[nH]2)nc2ccccc21 | – | active: 25.1 µM

Source: PubChem BioAssay AID938 (National Center for Advancing Translational Sciences (NCATS), 2007)
